{
  "sequences": {"note": "The chains behind the UniProt entries cited, without tags or fusion partners.", "UniProt P18089, whole entry": "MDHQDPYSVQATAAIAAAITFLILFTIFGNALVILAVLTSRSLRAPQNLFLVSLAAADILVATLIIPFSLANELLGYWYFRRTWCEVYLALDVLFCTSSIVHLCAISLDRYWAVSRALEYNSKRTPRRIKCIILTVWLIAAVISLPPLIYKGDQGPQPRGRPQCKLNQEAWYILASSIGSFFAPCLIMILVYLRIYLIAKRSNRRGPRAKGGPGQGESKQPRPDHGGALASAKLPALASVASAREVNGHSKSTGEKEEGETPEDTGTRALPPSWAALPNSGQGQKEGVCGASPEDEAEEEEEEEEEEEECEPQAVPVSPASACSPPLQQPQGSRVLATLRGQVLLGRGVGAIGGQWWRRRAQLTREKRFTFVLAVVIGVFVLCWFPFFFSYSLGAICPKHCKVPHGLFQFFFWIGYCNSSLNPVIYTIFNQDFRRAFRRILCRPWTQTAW"},
  "source": "ChEMBL document CHEMBL4402608",
  "about": "(J Med Chem, 2020)",
  "target": "Alpha-2B adrenergic receptor (Homo sapiens, UniProt P18089)",
  "data": [
    {"smiles": "CCCN[C@H]1CCc2nc(N)sc2C1", "note": "[PRAMIPEXOLE]", "values": [
      {"measurement": "Ki", "value": 67.7, "unit": "nM"}
    ]}
  ]
}
